This note sets out measurements from ChEMBL document CHEMBL3774377 (Bioorg Med Chem, 2016).

For the experiment, the target named is Sodium- and chloride-dependent GABA transporter 1 (Mus musculus, UniProt P31648). Put plainly: Displacement of NO 711 from mouse GAT1 expressed in HEK293 cell membranes after 40 mins by LC-ESI-MS-MS-based MS binding assay.

pKi: −log10 of the molar value.

Regarding `O=C(O)C1CCCNC1` (stereo unspecified) [NIPECOTIC ACID], the negative logarithm of the Ki (pKi) was 4.24.
